Values of other authors as cited in article PMC9268615, “Identification of Anti-Proliferative Compounds from Genista monspessulana Seeds through Covariate-Based Integration of Chemical Fingerprints and Bioactivity Datasets” (Molecules, 2022).

Key:
[1] = test system: BV2 (mouse microglia); conditions: cited from earlier work
[2] = test system: RAW 264.7 (mouse macrophages); conditions: cited from earlier work

tonkinensine B
cytotoxicity against normal BV2 vs precursors [1]: lower cytotoxicity
cytotoxicity against normal RAW 264.7 vs precursors [2]: lower cytotoxicity
